The subject of data set [1] is bovine pulmonary artery endothelial cells. The data set can be described thus: Disruption of bovine endothelial cell adhesion. To be noted: 500 μg/ml, 30 minutes. It counts as cell-based. The procedure:
For use within one such assay, bovine pulmonary artery endothelial cells may be harvested by sterile ablation and digestion in 0.1% collagenase (type II; Worthington Enzymes, Freehold, N.J.). Cells may be maintained in Dulbecco's minimum essential medium supplemented with 10% fetal calf serum and 1% antibiotic-antimycotic at 37° C. in 7% CO2 in air. Cultures may be passaged weekly in trypsin-EDTA and seeded onto tissue culture plastic at 20,000 cells/cm^2. Endothelial cultures may be used at 1 week in culture, which is approximately 3 days after culture confluency is established. The cells may be seeded onto coverslips and treated (e.g., for 30 minutes) with modulating agent or a control compound at, for example, 500 μg/ml and then fixed with 1% paraformaldehyde. As noted above, disruption of cell adhesion may be determined visually within 24 hours, by observing retraction of the cells from one another. This assay evaluates the effect of a modulating agent on N-cadherin mediated cell adhesion.
Bovine pulmonary artery endothelial cells were harvested by sterile ablation and digestion in 0.1% collagenase (type II; Worthington Enzymes, Freehold, N.J.). Cells were maintained in Dulbecco's […] essential medium (Clonetics, San Diego, Calif.) supplemented with 10% fetal calf serum (Atlantic Biologicals, Nor cross, Ga.) and 1% antibiotic-antimycotic at 37° C. in 7% CO2 in air. […]

Data set [2] relates to angiogenesis in chick embryonic chorioallantoic membranes. The data set can be described thus: Chick chorioallantoic membrane angiogenesis assay. In kind it is in vivo. As to conditions: 24 hours. As for the experimental part: The chick chorioallantoic membrane assay was used to assess the effects of cyclic peptides on angiogenesis (Iruela-Arispe et al., Molecular Biology of the Cell 6:327-343, 1995). Cyclic peptides were embedded in a mesh composed of vitrogen at concentrations of 3, 17, and 33 μg/mesh. The meshes were then applied to 12-day-old chick embryonic chorioallantoic membranes. After 24 hours, the effects of the peptides on angiogenesis were assessed by computer assisted morphometric analysis.
For each concentration of cyclic peptide, the percent inhibition of angiogenesis (relative to the level of angiogenesis in the absence of cyclic peptide) is provided. Assays were performed in the presence (+) or absence (−) of […] VEGF. For example, the cyclic peptide N-Ac-CHAVC-NH2 (SEQ ID NO:10) inhibited angiogenesis by 46%, 51%, and 51% at concentrations of 3, 17, and 33 μg/mesh, respectively.

A short description of data set [3]: in vitro. In kind it is cell-based. To be noted: human. As for the experimental part: (§1) N-Ac-CHAVC-NH2 (SEQ ID NO:10) and the control peptide N-Ac-CHGVC-NH2 (SEQ ID NO:20) were evaluated for possible cytotoxic effects on human microvascular endothelial (HMVEC; Clonetics), human umbilical vein endothelial (HUVEC; ATCC #CRL-1730), IAFp2 (human fibroblast cell line; Institute Armand-Frapier, Montreal, Quebec), WI-38 (human fibroblast cell line; ATCC #CCL-75), MDA-MB231 (human breast cancer cell line; ATCC #HTB-26), and PC-3 (human prostate cancer cell line; ATCC #CRL-1435) cells utilizing the MTT assay (Plumb et al., Cancer Res. 49:4435-4440, 1989). Neither of the peptides was cytotoxic at concentrations up to and including 100 μM. Similarly, neither of the peptides was capable of inhibiting the proliferation of the above cell lines at concentrations up to 100 μM, as judged by ^3H-thymidine incorporation assays.

Data set [4] can be described thus: in vitro. In kind it is cell-based. To be noted: human. As for the experimental part:
as §1
This is another data set of the same source.

The nature of data set [5]: in vitro. In kind it is cell-based. To be noted: human. The procedure: as §1
The source holds these as a separate data set.

A short description of data set [6]: in vitro. It counts as cell-based. As to conditions: human. The procedure:
as §1
The source holds these as a separate data set.

Data set [7] is described as follows: Chronic toxicity study in mice. In kind it is in vivo. To be noted: after the four day recovery period. As for the experimental part: Varying amounts of H-CHAVC-NH2 (SEQ ID NO:10; 2 mg/kg, 20 mg/kg and 125 mg/kg) were injected into mice intraperitoneally every day for three days.
A short description of data set [8]: Stability of cyclic peptide in mouse whole blood. In kind it is in vitro ADME. As to conditions: 37° C. As for the experimental part: 50 μl of a stock solution containing 12.5 μg/ml H-CHAVC-NH2 (SEQ ID NO:10) was added to mouse whole blood and incubated at 37° C. Aliquots were removed at intervals up to 240 minutes, precipitated with acetonitrile, centrifuged and analyzed by HPLC.

A further data set concerns the target T1, chick N-cadherin (Gallus gallus, UniProt P10288).
T1 construct: expressed in transfected cells; host or cells: 3T3 fibroblasts
T1 sequence (P10288 165-912): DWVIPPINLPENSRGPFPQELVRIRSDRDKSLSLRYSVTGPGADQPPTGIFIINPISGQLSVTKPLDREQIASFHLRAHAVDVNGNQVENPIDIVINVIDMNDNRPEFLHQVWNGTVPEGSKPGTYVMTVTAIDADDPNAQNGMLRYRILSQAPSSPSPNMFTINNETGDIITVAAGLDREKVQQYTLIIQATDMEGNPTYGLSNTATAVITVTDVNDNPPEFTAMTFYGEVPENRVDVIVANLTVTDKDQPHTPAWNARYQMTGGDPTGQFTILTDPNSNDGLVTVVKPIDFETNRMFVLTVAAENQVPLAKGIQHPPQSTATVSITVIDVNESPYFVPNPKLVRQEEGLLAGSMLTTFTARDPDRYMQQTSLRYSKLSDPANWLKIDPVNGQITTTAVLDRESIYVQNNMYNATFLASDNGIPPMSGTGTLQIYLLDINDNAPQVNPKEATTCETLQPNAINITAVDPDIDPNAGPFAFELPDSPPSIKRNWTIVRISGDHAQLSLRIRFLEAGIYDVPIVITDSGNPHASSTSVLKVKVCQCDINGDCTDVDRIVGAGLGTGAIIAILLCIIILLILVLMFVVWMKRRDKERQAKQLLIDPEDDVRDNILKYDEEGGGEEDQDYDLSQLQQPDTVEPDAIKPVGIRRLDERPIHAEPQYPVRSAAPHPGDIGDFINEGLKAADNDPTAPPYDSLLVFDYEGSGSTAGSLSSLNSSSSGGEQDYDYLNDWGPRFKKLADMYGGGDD
The data set can be described thus: N-cadherin dependent neurite outgrowth of rat cerebellar neurons on N-cadherin expressing 3T3 cells (Example 14). It counts as cell-based. To be noted: NIH3T3; 250 μg/mL, 16-18 hours. As for the experimental part:
Cell culture and neurite outgrowth assays. Co-cultures of cerebellar neurons on monolayers of control 3T3 cells and monolayers of transfected 3T3 cells that express physiological levels of chick N-cadherin or human L1 were established as previously described (Williams et al., Neuron 13:583-594, 1994). In brief, 80,000 3T3 cells (control and transfected) were plated into individual chambers of an eight-chamber tissue culture slide coated with polylysine and fibronectin and cultured in DMEM/10% FCS. After 24 hours, when confluent monolayers had formed, the medium was removed and 3000 cerebellar neurons isolated from post-natal day 2-3 rats were plated into each well in SATO media (Doherty et al., Nature 343:464-466, 1990) supplemented with 2% FCS. All of the test peptides were added immediately before the neurons as a 2×stock prepared in SATO/2% FCS. […] The mean length of the longest neurite per cell was measured for 150-200 neurons sampled in replicate cultures as previously described (Williams et al., Neuron 13:583-594, 1994). […] Dose-response curves were evaluated and the EC50 values determined.
Effects of cyclic HAV peptides on N-cadherin function. […] The cells were then fixed and the length of the longest neurite on 150-200 neurons was determined by standard assay, as described above. […]

Turning to `CC(C)[C@@H]1NC(=O)[C@H](C)NC(=O)[C@H](Cc2c[nH]cn2)NC(=O)[C@@H](N)CSSC[C@@H](C(N)=O)NC1=O` [H-CHAVC-NH2], the “effect on endothelial cell monolayer / morphology” value in data set [1] is on record as “had no effect on endothelial cell morphology”. For the same compound, the “percent inhibition of angiogenesis” value was 11% in data set [2] (3 μg/mesh, absence (−) of 0.01 mM VEGF); 27% in data set [2] (3 μg/mesh, presence (+) of 0.01 mM VEGF); 13% in data set [2] (17 μg/mesh, absence (−) of 0.01 mM VEGF); 34% in data set [2] (17 μg/mesh, presence (+) of 0.01 mM VEGF); 17% in [2] (33 μg/mesh, absence (−) of 0.01 mM VEGF); 35% in [2] (33 μg/mesh, presence (+) of 0.01 mM VEGF). For the same compound, the IC50 in “in vitro [3]”, in the data set “in vitro [4]”, in “in vitro [5]” and in the data set “in vitro [6]” was over 100 µM in each case. Besides, in data set [7], the autopsy findings entry is listed as “no abnormalities were observed”. Besides, the fraction remaining at 10 min in data set [8] (10 min) came to 98.9%. Also, the share remaining at 20 min in [8] (20 min) is 86.7%. Further, the fraction remaining at 0.5 h in data set [8] (30 min) was 113%. Further, in data set [8] (45 min), the fraction remaining at 0.75 h came to 110%. In [8] (60 min), the amount remaining at 1 h was determined as 95.5%. Moreover, the fraction remaining at 1.5 h in data set [8] (90 min) came to 111%. Besides, the fraction remaining at 2 h in data set [8] (120 min) stood at 68.1%. The share remaining at 4 h in [8] (240 min) came to 78.9%. Testing at 250 µg/mL against chick N-cadherin gave an inhibition of 1.7 ± 1.1%.
For `CC(C)[C@@H]1NC(=O)CNC(=O)[C@H](Cc2c[nH]cn2)NC(=O)[C@@H](N)CSSC[C@@H](C(N)=O)NC1=O` [H-CHGVC-NH2, reference compound], the IC50 in “in vitro [3]”, in the data set “in vitro [4]”, in “in vitro [5]” and in “in vitro [6]” was over 100 µM each time. Further, on chick N-cadherin, the inhibition (in general, the change of the read-out against control, counted positive when it falls) at 250 µg/mL is 7.8 ± 7.1%.

The values above are taken from patent US20030224978A1, “Compounds and methods for modulating apoptosis” (McGill University, priority 1996, published 2003).
